This note sets out measurements from patent publication US5658908A (priority 1992, dated 1997).

The test system of the data set is mu-opioid. Kind of data set: Respiratory/analgesia studies in rats compared to fentanyl. The conditions noted are these: at higher (equivalent) doses.

As for `C=CCN1C[C@H](C)N([C@H](c2cccc(O)c2)c2cccs2)C[C@H]1C`, the “safety compared to fentanyl” value is recorded as “much safer than fentanyl”.
